Experimental data taken from article PMC12095788, “Structural and mechanistic profiling of Nurr1 modulation by vidofludimus enables structure-guided ligand design” (Communications Chemistry, 2025).

Amino acid sequences for entries named in this document (tags omitted). Residues count along the entry.
UniProt P43354, 364-598: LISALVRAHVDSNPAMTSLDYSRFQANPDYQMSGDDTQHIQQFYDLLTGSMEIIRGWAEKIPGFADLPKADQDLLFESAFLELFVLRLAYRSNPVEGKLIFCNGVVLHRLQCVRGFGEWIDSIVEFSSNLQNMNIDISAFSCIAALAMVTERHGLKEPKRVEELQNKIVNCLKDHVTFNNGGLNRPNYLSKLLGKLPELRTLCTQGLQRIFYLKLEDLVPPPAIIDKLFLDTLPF
UniProt P43354, 360-595 I500F limits assumed: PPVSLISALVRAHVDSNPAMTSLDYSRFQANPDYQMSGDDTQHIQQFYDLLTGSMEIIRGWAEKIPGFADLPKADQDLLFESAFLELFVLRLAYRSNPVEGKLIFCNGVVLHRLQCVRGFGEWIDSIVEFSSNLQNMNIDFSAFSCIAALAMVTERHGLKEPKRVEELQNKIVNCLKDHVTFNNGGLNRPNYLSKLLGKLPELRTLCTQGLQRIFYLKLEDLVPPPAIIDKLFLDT
UniProt P43354, 360-595 I506F limits assumed: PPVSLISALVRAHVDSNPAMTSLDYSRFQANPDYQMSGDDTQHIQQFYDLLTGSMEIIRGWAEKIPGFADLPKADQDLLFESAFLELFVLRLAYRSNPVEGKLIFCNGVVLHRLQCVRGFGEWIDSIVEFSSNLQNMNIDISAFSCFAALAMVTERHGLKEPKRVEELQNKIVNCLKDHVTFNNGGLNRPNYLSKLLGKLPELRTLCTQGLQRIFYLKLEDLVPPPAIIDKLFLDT
UniProt P43354, 360-595 V373W/I500W limits assumed: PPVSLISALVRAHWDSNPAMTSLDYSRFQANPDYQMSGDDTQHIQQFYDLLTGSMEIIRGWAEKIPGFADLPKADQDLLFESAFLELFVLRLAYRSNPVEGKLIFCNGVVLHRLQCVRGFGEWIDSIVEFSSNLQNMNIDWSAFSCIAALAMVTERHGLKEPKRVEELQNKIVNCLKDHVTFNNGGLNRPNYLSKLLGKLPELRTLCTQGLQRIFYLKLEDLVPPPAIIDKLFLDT
UniProt P43354, 360-595 limits assumed: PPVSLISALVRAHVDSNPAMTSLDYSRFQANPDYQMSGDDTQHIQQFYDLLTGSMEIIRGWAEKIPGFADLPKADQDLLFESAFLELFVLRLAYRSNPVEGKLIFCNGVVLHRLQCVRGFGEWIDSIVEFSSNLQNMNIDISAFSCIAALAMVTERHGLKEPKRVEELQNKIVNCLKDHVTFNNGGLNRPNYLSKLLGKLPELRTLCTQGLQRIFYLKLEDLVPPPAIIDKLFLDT
UniProt P43354, 360-595 L570F limits assumed: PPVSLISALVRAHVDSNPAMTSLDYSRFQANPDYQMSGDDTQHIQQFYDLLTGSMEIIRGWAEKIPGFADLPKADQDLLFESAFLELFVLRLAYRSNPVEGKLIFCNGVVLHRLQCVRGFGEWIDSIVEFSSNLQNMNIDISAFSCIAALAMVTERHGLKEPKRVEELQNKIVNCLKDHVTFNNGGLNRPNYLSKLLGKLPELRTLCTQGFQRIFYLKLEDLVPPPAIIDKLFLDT
UniProt P43354, 360-595 L444F limits assumed: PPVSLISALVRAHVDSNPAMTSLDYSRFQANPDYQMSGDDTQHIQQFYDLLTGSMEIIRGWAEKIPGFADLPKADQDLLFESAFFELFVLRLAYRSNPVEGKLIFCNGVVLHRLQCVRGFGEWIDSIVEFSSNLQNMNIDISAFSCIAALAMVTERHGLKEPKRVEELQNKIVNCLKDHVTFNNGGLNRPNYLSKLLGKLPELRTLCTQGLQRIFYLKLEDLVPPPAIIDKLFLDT
UniProt P43354, 360-595 Q571W limits assumed: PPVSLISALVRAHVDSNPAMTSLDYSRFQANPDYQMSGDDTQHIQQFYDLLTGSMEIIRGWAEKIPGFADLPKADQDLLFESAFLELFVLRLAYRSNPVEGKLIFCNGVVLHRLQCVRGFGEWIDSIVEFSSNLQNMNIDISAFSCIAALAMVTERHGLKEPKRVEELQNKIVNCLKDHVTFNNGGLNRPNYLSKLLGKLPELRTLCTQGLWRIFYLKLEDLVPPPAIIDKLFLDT
UniProt P43354, 360-595 H372F limits assumed: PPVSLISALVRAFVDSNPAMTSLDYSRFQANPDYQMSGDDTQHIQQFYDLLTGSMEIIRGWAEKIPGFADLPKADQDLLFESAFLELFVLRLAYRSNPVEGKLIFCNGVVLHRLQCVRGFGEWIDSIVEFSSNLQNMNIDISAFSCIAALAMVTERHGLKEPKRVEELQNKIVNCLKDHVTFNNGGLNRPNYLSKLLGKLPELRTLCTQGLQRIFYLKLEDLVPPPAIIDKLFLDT
UniProt P43354, 360-595 L559F limits assumed: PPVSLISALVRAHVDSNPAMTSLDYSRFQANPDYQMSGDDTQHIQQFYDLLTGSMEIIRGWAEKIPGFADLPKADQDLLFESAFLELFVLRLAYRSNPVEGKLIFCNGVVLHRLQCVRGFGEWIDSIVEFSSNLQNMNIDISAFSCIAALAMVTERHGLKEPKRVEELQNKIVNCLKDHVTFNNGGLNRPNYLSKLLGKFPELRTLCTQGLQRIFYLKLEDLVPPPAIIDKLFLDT
UniProt P43354, 360-595 I500W limits assumed: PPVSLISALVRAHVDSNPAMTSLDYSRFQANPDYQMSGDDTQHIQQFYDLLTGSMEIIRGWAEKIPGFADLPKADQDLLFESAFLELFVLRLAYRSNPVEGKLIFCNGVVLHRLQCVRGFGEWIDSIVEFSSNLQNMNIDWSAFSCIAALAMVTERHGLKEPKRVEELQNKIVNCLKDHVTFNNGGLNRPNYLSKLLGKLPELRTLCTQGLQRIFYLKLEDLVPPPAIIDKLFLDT

Tests used:
[1] = target: T1, Nurr1 LBD - PIASγ (Homo sapiens, UniProt P43354); assay: HTRF co-regulator recruitment assay, PIASγ; type: biochemical
T1 construct: a plasmid construct encoding Nurr1 (aa 364-598) in a pMal vector system; MBP (cleaved yes); made in house; host or cells: E. coli BL21-R3-pRARE2

[2] = target: T2, Gal4-Nurr1 I500F (Homo sapiens, UniProt P43354, I500F); assay: Gal4-Nurr1 hybrid reporter gene assay, mutant I500F; type: cell-based
T2 construct: expressed in transfected cells; host or cells: HEK293T

[3] = target: Gal4-Nurr1 I506F (Homo sapiens, UniProt P43354, I506F); assay: cell-based
[4] = target: T3, Nurr1 LBD - NCOR1 (Homo sapiens, UniProt P43354); assay: HTRF co-regulator recruitment assay, NCOR1; type: biochemical; conditions: fluorescein labeled corepressor peptide, read-out: IC50 NCOR1 displacement from Nurr1 LBD
T3 construct: a plasmid construct encoding Nurr1 (aa 364-598) in a pMal vector system; MBP (cleaved yes); made in house; host or cells: E. coli BL21-R3-pRARE2

[5] = target: T4, Gal4-Nurr1 I500W/V373W (Homo sapiens, UniProt P43354, I500W/V373W); assay: Gal4-Nurr1 hybrid reporter gene assay, double mutant I500W/V373W; type: cell-based; conditions: fold reporter activation vs. DMSO
T4 construct: expressed in transfected cells; host or cells: HEK293T

[6] = target: T5, Nurr1 LBD - Lmx1b (Homo sapiens, UniProt P43354); assay: HTRF co-regulator recruitment assay, Lmx1b; type: biochemical
T5 construct: sGFP-Nurr1[26]; LBD as FRET acceptor; made in house

[7] = target: T6, Nurr1 LBD - NRIP (Homo sapiens, UniProt P43354); assay: HTRF co-regulator recruitment assay, NRIP; type: biochemical
T6 construct: a plasmid construct encoding Nurr1 (aa 364-598) in a pMal vector system; MBP (cleaved yes); made in house; host or cells: E. coli BL21-R3-pRARE2

[8] = target: T7, Nurr1 LBD - RXRα LBD heterodimer (Homo sapiens, UniProt P43354); assay: HTRF Nurr1-RXRα heterodimer formation assay; type: biochemical; parameters: a plasmid construct encoding Nurr1 (aa 364-598) in a pMal vector system; MBP (cleaved yes); made in house; host or cells: E.coli BL21-R3-pRARE2 (biotinylated Nurr1 LBD)
[9] = target: Nurr1 LBD - SRC-1 (Homo sapiens, UniProt P43354)
[10] = target: Gal4-Nurr1 L570F (Homo sapiens, UniProt P43354, L570F); assay: cell-based
[11] = target: Gal4-Nurr1 L444F (Homo sapiens, UniProt P43354, L444F); assay: cell-based
[12] = target: Gal4-Nurr1 (wt human Nurr1 LBD) (Homo sapiens, UniProt P43354); conditions: maximum activation; cited from earlier work
[13] = target: T7, Nurr1 LBD - RXRα LBD heterodimer; assay: ITC Nurr1-RXR dimerization; conditions: ITC stoichiometry, ligand 200 µM
[14] = target: T8, Nurr1 LBD - CoREST (Homo sapiens, UniProt P43354); assay: HTRF co-regulator recruitment assay, CoREST; type: biochemical
T8 construct: sGFP-Nurr1[26]; LBD as FRET acceptor; made in house

[15] = target: Gal4-Nurr1 Q571W (Homo sapiens, UniProt P43354, Q571W); assay: cell-based
[16] = target: T9, Nurr1 LBD - SMRT (Homo sapiens, UniProt P43354); assay: HTRF co-regulator recruitment assay, SMRT; type: biochemical
T9 construct: a plasmid construct encoding Nurr1 (aa 364-598) in a pMal vector system; MBP (cleaved yes); made in house; host or cells: E. coli BL21-R3-pRARE2

[17] = target: Nurr1 LBD (wt) (Homo sapiens, UniProt P43354); assay: Binding kinetics by biolayer interferometry (BLI); parameters: For generation of biotinylated Nurr1 a plasmid construct encoding Nurr1 (aa 364-598) in a pMal vector system; MBP (cleaved yes); made in house; host or cells: E.coli BL21-R3-pRARE2
[18] = target: T10, Nurr1 LBD - NCoA6 (Homo sapiens, UniProt P43354); assay: HTRF co-regulator recruitment assay, NCoA6; type: biochemical
T10 construct: a plasmid construct encoding Nurr1 (aa 364-598) in a pMal vector system; MBP (cleaved yes); made in house; host or cells: E. coli BL21-R3-pRARE2

[19] = target: T11, Gal4-Nurr1 H372F (Homo sapiens, UniProt P43354, H372F); assay: Gal4-Nurr1 hybrid reporter gene assay, mutant H372F; type: cell-based
T11 construct: expressed in transfected cells; host or cells: HEK293T

[20] = target: Gal4-Nurr1 L559F (Homo sapiens, UniProt P43354, L559F); assay: cell-based
[21] = target: Gal4-Nurr1 I500W (Homo sapiens, UniProt P43354, I500W); assay: cell-based

## COc1cccc(-c2ccc(NC(=O)C3=C(C(=O)O)CCC3)c(F)c2)c1 [vidofludimus]
[1]
  IC50: 12000 ± 2000 nM
[2]
  EC50: 140 ± 20 nM
[3]
  EC50: 230 ± 50 nM
[4]
  IC50: 10000 ± 3000 nM
[5]
  activation of Gal4-Nurr1 double mutant I500W/V373W: complete loss of activation
[5]; listed as Vidofludimus
  activation of Gal4-Nurr1 double mutant I500W/V373W: failed to activate
[6]
  effect on Lmx1b recruitment to Nurr1 LBD: no effect; also recorded: no response
[7]
  IC50: 14000 ± 3000 nM
[8]
  effect on Nurr1-RXR heterodimerization: destabilized
[9]
  effect on SRC-1 binding to Nurr1 LBD: neither bound to ligand-free Nurr1 nor in presence of vidofludimus
[10]
  EC50: 410 ± 80 nM
[11]
  EC50: 220 ± 80 nM
[12]
  activation on Nurr1 (efficacy): 310%
[13]
  n Nurr1 LBD – RXR LBD: 0.79±0.07
[14]
  effect on CoREST recruitment to Nurr1 LBD: slightly reduced and weak
[15]
  EC50: 120 ± 10 nM
[16]
  IC50: 8000 ± 1000 nM
[17]; BLI, Nurr1 LBD wt
  dissociation rate koff: 0.233 s⁻¹
[17]; read-out: dissociation rate koff, BLI, Nurr1 LBD wt
  koff: 0.223 s⁻¹
[18]
  IC50: 9000 ± 2000 nM
[19]
  EC50: 130 ± 10 nM
[20]
  EC50: 220 ± 30 nM
[21]
  EC50: 200 ± 20 nM

Entries after “also recorded” stand apart in the source; their conditions may differ.
